Source: PMC5560099 (ACS infectious diseases, 2017)

The chains behind the UniProt entries cited, without tags or fusion partners. Residues count along the entry.
UniProt A0A0H3KN52, 45-302: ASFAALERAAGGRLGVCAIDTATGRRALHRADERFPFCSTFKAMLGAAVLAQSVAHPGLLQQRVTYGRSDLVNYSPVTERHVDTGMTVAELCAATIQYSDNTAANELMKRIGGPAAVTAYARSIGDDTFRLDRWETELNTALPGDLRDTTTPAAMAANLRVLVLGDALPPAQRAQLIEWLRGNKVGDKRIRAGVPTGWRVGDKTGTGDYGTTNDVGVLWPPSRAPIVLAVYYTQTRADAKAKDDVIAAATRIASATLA

Biological target: PenA β-lactamase (Burkholderia multivorans, UniProt A0A0H3KN52)
Experiment: biochemical

## NC(=O)[C@@H]1CC[C@@H]2CN1C(=O)N2OS(=O)(=O)O [avibactam]
  Ki: 0.5 ± 0.1 µM
